Experiments:
[1] = target: S1P1‐EGFP fusion construct (Homo sapiens, UniProt P21453); assay: S1P1-EGFP internalization imaging in human primary astrocytes; assay type: cell-based; settings: 1 µM, 1 h
S1P1 = S1P1 (Homo sapiens, UniProt P21453); assay: S1P1 internalization, wash-out experiment in S1P1-C6 cells; assay type: cell-based; settings: 1 µM for 4 h, 18 h compound-free medium, FCM

Chains of the proteins cited; added tags and fusions are not shown.
UniProt P21453, whole entry: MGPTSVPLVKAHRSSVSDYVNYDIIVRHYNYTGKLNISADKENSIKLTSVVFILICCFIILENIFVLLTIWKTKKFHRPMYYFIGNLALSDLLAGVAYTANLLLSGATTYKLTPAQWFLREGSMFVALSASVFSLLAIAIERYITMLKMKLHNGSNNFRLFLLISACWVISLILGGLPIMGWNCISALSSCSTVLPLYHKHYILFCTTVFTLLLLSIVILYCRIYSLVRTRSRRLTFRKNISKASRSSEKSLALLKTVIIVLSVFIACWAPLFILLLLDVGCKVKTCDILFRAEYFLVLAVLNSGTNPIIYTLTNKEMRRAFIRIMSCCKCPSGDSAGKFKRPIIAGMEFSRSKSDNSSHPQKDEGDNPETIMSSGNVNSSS

CCCCCCCCc1ccc(CC[C@](N)(CO)COP(=O)(O)O)cc1 [Fingolimod-P, fingolimod phosphate]
S1P1 internalization (S1P1-EGFP imaging) [1]: rapid S1P1 internalization
cell surface expression of S1P1 after wash-out (S1P1): induced sustained S1P1 internalization
